Measured values published in patent publication US10350219B2, “Antimicrobial compositions and methods of making the same” (priority 2013, dated 2019).

Test: Table Lamp Light Exposure Test (TLE), discoloration
Format: physicochemical
Settings: gel with glycerol 10%, clay 4%, silver 0.054% weight; for Gel color after continuous light exposure: After 24 h: 60 W table lamp; for Gel color after continuous light exposure: Fresh: 60 W table lamp at 1 to 1.5 feet

Substance	Gel color after continuous light exposure: After 24 h	Gel color after continuous light exposure: Fresh
Silver Mono-succinate	Brown black	
Silver Salicylate		Brown after 0.5 h
Silver Sulfo-succinate	Brown black	Brown after 0.5 h
